{
  "sequences": {"note": "Amino acid sequences for entries named in this document (tags omitted).", "UniProt P35372, whole entry, looked up": "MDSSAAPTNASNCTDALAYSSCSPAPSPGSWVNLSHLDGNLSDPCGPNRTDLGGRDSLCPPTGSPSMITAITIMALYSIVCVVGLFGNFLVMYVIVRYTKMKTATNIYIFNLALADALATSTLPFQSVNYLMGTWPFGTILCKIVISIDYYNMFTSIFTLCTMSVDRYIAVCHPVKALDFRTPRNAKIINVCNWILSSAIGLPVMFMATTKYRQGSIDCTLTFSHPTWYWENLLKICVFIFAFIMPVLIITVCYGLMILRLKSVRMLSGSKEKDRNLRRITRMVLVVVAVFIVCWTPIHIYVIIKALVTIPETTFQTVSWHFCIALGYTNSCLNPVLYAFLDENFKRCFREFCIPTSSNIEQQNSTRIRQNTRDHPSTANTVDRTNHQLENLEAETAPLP", "UniProt P41143, whole entry, looked up": "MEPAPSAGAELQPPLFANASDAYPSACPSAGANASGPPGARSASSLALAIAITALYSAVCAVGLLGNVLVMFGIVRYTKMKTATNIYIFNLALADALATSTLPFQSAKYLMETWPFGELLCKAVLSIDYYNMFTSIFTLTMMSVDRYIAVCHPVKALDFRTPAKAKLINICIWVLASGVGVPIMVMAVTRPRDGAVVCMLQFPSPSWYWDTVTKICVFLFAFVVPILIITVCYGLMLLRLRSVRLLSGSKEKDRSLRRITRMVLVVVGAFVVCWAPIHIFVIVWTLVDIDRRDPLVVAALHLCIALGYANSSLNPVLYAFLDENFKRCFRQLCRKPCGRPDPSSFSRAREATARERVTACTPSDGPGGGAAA"},
  "source": "ChEMBL document CHEMBL1144921",
  "about": "“14-amino, 14-alkylamino, and 14-acylamino analogs of oxymorphindole. Differential effects on opioid receptor binding and functional profiles” (J Med Chem, 2003)",
  "key": {"Mu-type opioid receptor [1]": {"target": "T1, Mu-type opioid receptor (Homo sapiens, UniProt P35372)", "experiment": "Stimulation of [35S]GTP-gamma-S, binding to recombinant human Opioid receptor mu 1 expressed in CHO cells"}, "[2]": {"target": "Delta-type opioid receptor (Homo sapiens, UniProt P41143)", "experiment": "Stimulation of [35S]GTP-gamma-S, binding at human recombinant Opioid receptor delta 1 transfected into CHO cells."}, "Mu-type opioid receptor [3]": {"target": "T1, Mu-type opioid receptor", "details": "cho"}},
  "data": [
    {"smiles": "CN(C(=O)Cc1ccccc1)[C@H]1CC[C@@]2(CCCO2)C[C@@H]1N1CCCC1", "values": [
      {"measurement": "EC50", "setting": "Mu-type opioid receptor [1]", "result": "> 10", "unit": "µM"},
      {"measurement": "EC50", "setting": "[2]", "result": "> 10", "unit": "µM"},
      {"measurement": "Ki", "setting": "Mu-type opioid receptor [3]", "result": 1.15, "unit": "µM"}
    ]}
  ]
}
